Source: article PMC10500568, “Inhibition of MurA Enzyme from Escherichia coli by Flavonoids and Their Synthetic Analogues” (ACS Omega, 2023)

Chains of the proteins cited; added tags and fusions are not shown. Lines headed by an entry give the natural chain unless they say otherwise; changes in a name come on top.
UniProt P0A749: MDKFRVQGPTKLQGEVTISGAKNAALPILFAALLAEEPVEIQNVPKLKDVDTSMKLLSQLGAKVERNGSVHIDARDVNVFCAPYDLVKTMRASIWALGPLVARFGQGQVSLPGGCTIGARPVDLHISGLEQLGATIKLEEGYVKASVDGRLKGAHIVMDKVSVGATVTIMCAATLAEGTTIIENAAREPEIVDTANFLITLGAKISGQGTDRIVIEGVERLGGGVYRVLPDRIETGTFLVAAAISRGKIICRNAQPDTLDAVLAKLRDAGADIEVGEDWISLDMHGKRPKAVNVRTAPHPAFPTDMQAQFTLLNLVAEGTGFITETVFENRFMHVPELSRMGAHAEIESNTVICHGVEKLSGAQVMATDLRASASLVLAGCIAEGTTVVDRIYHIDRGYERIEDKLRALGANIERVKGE

Target: MurA enzyme from E. coli (Escherichia coli, UniProt P0A749)
Experiment: MurA inhibition assay (malachite green, orthophosphate release)
Type: biochemical
Conditions: 30 min preincubation
Description: To determine the inhibition of MurA, the colorimetric assay with malachite green was used to measure the release of orthophosphate generated during the reaction.[30] […] Time-dependent inhibition assays were also performed by preincubating MurA with the 200 μM UNAG substrate and target compounds for 30 min at 37 °C before starting the reaction with the addition of the second substrate 100 μM PEP, resulting in a final mixture volume of 50 μL. The reaction was stopped after a 15 min incubation at 37 °C by adding the Biomol reagent (100 μL, Enzo Life Sciences, New York), and the absorbance was measured after 5 min at 650 nm using a microplate reader (BioTek, Synergy H4). The final concentration of DMSO in the reaction mixture was 5% (v/v), and 1 μM fosfomycin was used as a reference in the MurA assay. The percentage of residual activity was calculated in comparison to the negative controls, which contained only 5% DMSO. IC50 values were determined by measuring residual activities at 7 different concentrations of the compounds and calculated using GraphPad Prism (GraphPad Software, San Diego, California).
The initial screening of flavonoids was performed under three different assay conditions: (1) without preincubation, (2) with a 30 min preincubation, and (3) with the addition of dithiothreitol (DTT) along with a 30 min preincubation. […]

Substance: myricitrin [Compound 5]
- IC50: 2400 nM
